Laboratory results taken from PMC11579512, “Deoxybouvardin-glucoside induces apoptosis in non-small cell lung cancer cells by targeting EGFR/MET and AKT signaling pathway” (EXCLI Journal, 2024).

Test system: HCC827 cells
Assay: Soft agar anchorage-independent growth, HCC827
Type: cell-based, human
Conditions: 2 weeks; GEF 1 μM, SAV 2 nM or both
Protocol: The anchorage-independent cell growth assay was performed in 6-well plates with dual agar layers containing 0.6 % agar (lower layer) and 0.3 % agar (upper layer) supplemented with BME, 2 mM L-glutamine, 5 μg/ml gentamicin, and 10 % FBS. After 2 weeks of incubation, the number of colonies was assessed using a microscope (Leica, Wetzlar, Germany), and the mean colony area was analyzed using i-Solution ^TM software (Vancouver, BC, Canada).

`COc1cc2ncnc(Nc3ccc(F)c(Cl)c3)c2cc1OCCCN1CCOCC1` [GEF, gefitinib, reference compound] was tested, and the “colony formation, in words” value was “did not form any colonies”.
